Data published in article PMC8973347, “Discovery of novel sulphonamide hybrids that inhibit LSD1 against bladder cancer cells” (Journal of Enzyme Inhibition and Medicinal Chemistry, 2022).

Protein sequences, listed by entry. Tags and fused reporters are not part of them.
UniProt P27338, whole entry, species assumed: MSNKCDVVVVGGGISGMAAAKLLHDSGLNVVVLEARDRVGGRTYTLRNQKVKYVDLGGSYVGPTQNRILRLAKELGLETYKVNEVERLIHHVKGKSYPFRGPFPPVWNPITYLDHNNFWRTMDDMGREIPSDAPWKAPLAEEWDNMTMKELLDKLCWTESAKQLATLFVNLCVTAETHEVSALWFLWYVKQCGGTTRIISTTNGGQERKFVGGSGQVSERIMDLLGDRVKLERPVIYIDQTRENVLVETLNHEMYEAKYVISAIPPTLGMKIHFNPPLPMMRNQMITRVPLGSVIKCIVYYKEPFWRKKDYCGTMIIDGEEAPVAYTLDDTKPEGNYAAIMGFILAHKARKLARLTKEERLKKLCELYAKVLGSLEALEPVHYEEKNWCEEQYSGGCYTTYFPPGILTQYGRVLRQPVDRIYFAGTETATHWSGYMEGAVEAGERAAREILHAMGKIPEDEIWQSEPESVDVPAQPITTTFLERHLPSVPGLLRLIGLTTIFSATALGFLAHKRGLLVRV

Biological target: T1, MAO-B (Homo sapiens, UniProt P27338)
T1 construct: purchased Promega
Assay: MAO-A/B biochemical kit, MAO-B

N[C@H]1CC[C@H](N[C@@H]2C[C@H]2c2ccccc2)CC1 [ORY-1001, reference compound]
IC50: > 120 µM
